{
  "source": "ChEMBL document CHEMBL1126717",
  "about": "(J Med Chem, 1993)",
  "target": "T1, Cyclooxygenase (Rattus norvegicus, UniProt P35355+Q63921)",
  "T1 sequence (P35355 whole entry)": "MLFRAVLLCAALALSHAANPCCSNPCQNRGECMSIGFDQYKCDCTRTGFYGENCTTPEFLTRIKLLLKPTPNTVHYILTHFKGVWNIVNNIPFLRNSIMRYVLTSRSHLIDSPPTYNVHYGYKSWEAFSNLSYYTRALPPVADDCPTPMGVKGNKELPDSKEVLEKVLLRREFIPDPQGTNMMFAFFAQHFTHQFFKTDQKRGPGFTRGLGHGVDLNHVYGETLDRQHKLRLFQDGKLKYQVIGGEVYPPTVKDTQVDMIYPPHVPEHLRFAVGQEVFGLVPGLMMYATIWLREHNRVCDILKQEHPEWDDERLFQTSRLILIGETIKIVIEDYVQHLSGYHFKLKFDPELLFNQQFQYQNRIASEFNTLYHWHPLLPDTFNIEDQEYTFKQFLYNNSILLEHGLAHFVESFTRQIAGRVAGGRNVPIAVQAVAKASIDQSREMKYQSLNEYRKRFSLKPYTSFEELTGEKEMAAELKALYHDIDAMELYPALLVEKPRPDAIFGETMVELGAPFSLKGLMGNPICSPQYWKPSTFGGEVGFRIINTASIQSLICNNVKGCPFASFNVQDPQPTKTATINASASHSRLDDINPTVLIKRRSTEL",
  "T1 sequence (Q63921 whole entry)": "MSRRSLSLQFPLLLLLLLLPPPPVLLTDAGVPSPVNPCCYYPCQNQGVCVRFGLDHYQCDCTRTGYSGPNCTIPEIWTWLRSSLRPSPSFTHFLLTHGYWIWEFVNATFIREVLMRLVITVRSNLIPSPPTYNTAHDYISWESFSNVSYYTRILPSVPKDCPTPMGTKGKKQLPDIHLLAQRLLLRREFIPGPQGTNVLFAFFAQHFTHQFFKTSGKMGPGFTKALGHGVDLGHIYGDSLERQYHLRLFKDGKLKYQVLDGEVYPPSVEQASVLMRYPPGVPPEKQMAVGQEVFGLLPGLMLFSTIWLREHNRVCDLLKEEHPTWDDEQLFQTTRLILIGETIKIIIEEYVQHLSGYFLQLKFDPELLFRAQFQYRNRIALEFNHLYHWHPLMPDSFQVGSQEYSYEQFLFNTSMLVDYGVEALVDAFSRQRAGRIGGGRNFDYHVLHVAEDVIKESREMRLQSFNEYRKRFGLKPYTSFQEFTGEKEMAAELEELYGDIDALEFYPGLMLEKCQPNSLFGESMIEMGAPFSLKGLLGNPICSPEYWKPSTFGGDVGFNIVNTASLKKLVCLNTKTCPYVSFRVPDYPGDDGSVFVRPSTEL",
  "test": "Inhibition of Prostaglandin G/H synthase mediated PGF2-alpha formation in rat basophilic leukemia (RBL-1) cells",
  "assay_type": "cell-based",
  "data": [
    {"smiles": "FC(F)(F)c1cccc(Nc2ccccc2-c2n[nH]c(S)n2)c1", "values": [
      {"measurement": "IC50", "result": 0.51, "unit": "µM"}
    ]}
  ]
}
